Test results: US10973762B2, “Active-targeting-type polymer derivative, composition containing said polymer derivative, and uses of said polymer derivative and said composition” (Nippon Kayaku Kabushiki Kaisha, priority 2016, dated 2021)

Key:
[1] = Average particle size, single nanoparticle size analyzer IG-1000; assay type: physicochemical; settings: 2 mg/mL
Procedure: The measurement of the average particle size of the compositions including block copolymers of Examples 3 to 10 and Comparative Examples 1 to 6 was carried out using a single nanoparticle size analyzer, IG-1000, manufactured by Shimadzu Corp. (measurement temperature: 25° C., light intensity at t=0: 100 to 200).
Regarding a sample for measuring the average particle size, a solution produced to have a concentration of 2 mg/mL or 5 mg/mL in terms of the composition weight and filtered through a 0.45-μm membrane filter, was used.

human glioma U87MG = test: Test Example 3: intratumor tissue distribution (fluorescence of sections); assay type: in vivo, nude mice; settings: one hour after i.v. administration, 5 mg/kg in terms of fluorescent substance
Procedure: (§1) A suspension of cultured cancer cell human glioma U87MG was subcutaneously transplanted on the dorsal sides of nude mice using an injection needle-attached syringe. Example 3, Comparative Example 4, and Comparative Example 5 were dissolved in a 5% glucose injectable solution, and each of the solutions was intravenously administered a single time in an amount of 5 mg/kg in terms of 2-(2-aminoethoxy)-9-(diethylamino)-5H-benzo[a]phenoxazin-5-one.
(§2) After one hour and after 24 hours from the administration, the mice were exsanguinated under isoflurane anesthesia, and frozen embedded sections of extracted tumor and kidney were produced. Fluorescence derived from 2-(2-aminoethoxy)-9-(diethylamino)-5H-benzo[a]phenoxazin-5-one in the administered composition was observed.
(§3) Furthermore, luminance was calculated based on those images using an Image-Pro Premier (Media Cybernetics, Inc.). The values of luminance of tumor tissue sections are shown in FIG. 5, and the values of luminance of kidney tissue sections are shown in FIG. 7.

[2] = Test Example 3: intrarenal tissue distribution (fluorescence of sections); assay type: in vivo, nude mice; settings: i.v. 5 mg/kg in terms of fluorescent substance
Procedure: as §1, §2, §3

[3] = 1 mg/mL, Zetasizer Nano ZS

Row | Substance | average particle size [1] [nm] | intratumor distribution of fluorescence (human glioma U87MG) | intrarenal distribution of fluorescence [2] | average particle size [3] [nm]
1 | 4-phenyl-1-butanol-bonded and 2-(2-aminoethoxy)-9-(diethylamino)-5H-benzo[a]phenoxazin-5-one-bonded product of polyethylene glycol (2 kilodaltons)-polyglutamic acid (7.9 polymerizations) block copolymer [Comparative Example 5] | 13 | penetration into the entire tumor and fluorescent signals were observed in a wider region | fluorescence was observed in the blood vessels and in the renal tubules | 
2 | 4-phenyl-1-butanol-bonded and 2-(2-aminoethoxy)-9-(diethylamino)-5H-benzo[a]phenoxazin-5-one-bonded product of polyethylene glycol (10 kilodaltons)-polyglutamic acid (21.0 polymerizations) block copolymer [Comparative Example 1] | 18 |  |  | 
3 | 4-phenyl-1-butanol-bonded and 2-(2-aminoethoxy)-9-(diethylamino)-5H-benzo[a]phenoxazin-5-one-bonded product of polyethylene glycol (12 kilodaltons)-polyglutamic acid (22.0 polymerizations) block copolymer [Comparative Example 4] | 36 | penetration into the tumor was poor | fluorescence was not recognized in areas other than the blood vessels in the kidney | 
4 | 4-phenyl-1-butanol-bonded product of ester polyethylene glycol (2 kilodaltons)-polyglutamic acid (7.8 polymerizations) block copolymer having cyclo[Arg-Gly-Asp-D-Phe-Lys(Cys)] (cRGDfK(C)) bonded thereto and having 4-maleimidobutyric acid-N-hydroxysuccinimide at one terminal [Example 1-2B] |  |  |  | 22
5 | 4-phenyl-1-butanol-bonded product of polyethylene glycol (2 kilodaltons)-polyglutamic acid (7.8 polymerizations) block copolymer having cyclo[Arg-Gly-Asp-D-Phe-Cys] (cRGDfC) bonded thereto and having 4-maleimidobutyric acid-N-hydroxysuccinimide ester bonded to one terminal [Example 1-1] |  |  |  | 25

Like-named read-outs stand apart in the source and are kept apart here.
